Experimental data reported in patent publication US20060036086A1, “Use of signal transduction inhibitors and combination therapies for the prevention or treatment of cancer and angiogenesis related diseases” (priority 2002, published 2006).
Entries after “also recorded” stand apart in the source; their conditions may differ.

How the values were obtained:
[1] = test system: MDA-MB-361HK tumor; assay: MDA-MB-361HK tumor in SCID mouse cranial window, intravital fluorescence microscopy (vessels, permeability, tumor size, survival); assay type: in vivo, SCID mice
Protocol: The ability of Herceptin treatment to induce normalization and regression of the vasculature of a HER2 over-expressing human breast carcinoma was tested in vivo. For better in vivo growth of tumors for this analysis, the MDA-MB-361HK cell line (Genentech Inc., San Francisco, Calif.) was derived from MDA-MB-361, a HER2 over-expressing human breast cancer cell line derived from a brain metastasis. MDA-MB-361HK tumor xenografts were established by injection of a single-cell suspension into the dorsal flank of female SCID mice supplemented with an estrogen pellet (17-β-estradiol 0.36 mg, Innovative Research, Sarasota, Fla.) inserted subcutaneously a few days before cell injection. Tumors were serially transplanted up to four generations. Cranial windows were prepared in 8-10 week old female SCID mice as previously described (Jain et al., in Tumor Models In Cancer Research, ed. Teicher, Humana Press Inc., Totowa, N.J., pp. 647-671, 2001). These mice were bred and maintained in our gnotobiotic animal facility. A few days after estrogen supplementation, a piece of MDA-MB-361HK tumor, approximately 1 mm in diameter, was implanted into the cranial windows. Approximately 14 days after tumor implantation, when the tumor became well vascularized (approximately 2 mm in diameter; referred to as treatment day 0), we began treating the animals with intraperitoneal injection of either Herceptin or control human IgG (Genentech), 30 mg/kg, every 3 days. Treatment continued until the tumor diameter reached approximately 6 mm, the size of the window. Then, the mouse was sacrificed, and the tumor was resected for histological and molecular analyses. Animal survival was derived from the time interval between the initiation of treatment and animal sacrifice. Tumor size, vessel density, mean vessel diameter, and vessel volume of the cranial window tumor were analyzed every 3 days from treatment day 0 using intravital fluorescence microscopy and quantified as previously described (Jain et al., supra). For visualization of blood vessels, 10 mg/ml fluorescein isothiocyanate labelled dextran solution (Mr, 2,000,000; Sigma Chemical Co., St. Louis, Mo.) was injected via a tail vein cannula. Vascular permeability to albumin was measured on treatment day 0, day 15, and the day the tumor reached 6 mm, as previously described (Jain et al., supra). Mice were injected with a bolus (100 μl) of 1% tetramethylrhodamine labelled bovine serum albumin (Molecular Probes, Eugene, Oreg.) in saline via the tail vein.

[2] = test system: angiogenesis related genes; assay: Expression of angiogenesis related genes in tumors in vivo (Human Cancer/angiogenesis-2 GEArray kit, Northern blot); design: species or system SCID mice
From the text: (§1) Based on the finding that the vascular effect of Herceptin was very stable throughout the course of the study, together with the known diversity of human epidermal growth factor receptor pathways (Yarden et al., Nat. Rev. Mol. Cell Biol. 2:127-137, 2001), we hypothesized that Herceptin treatment affects multiple pro- and anti-angiogenic factors. To test this hypothesis, we examined 23 angiogenesis related genes using the Human Cancer/angiogenesis-2 GEArray kit (SuperArray Inc., Bethesda, Md.) according to manufacturer's instructions. For this analysis, the gene expression of tumors in vivo and in vitro was measured in the presence and absence of Herceptin. In particular, tumors were removed from Herceptin and control antibody treated mice once the tumors reached 6 mm in size. The tumor tissue was then homogenized, and the cells were lysed. To collect mRNA, the lysate was applied to a spin column containing an oligo-T matrix to bind the polyA termini of the mRNA. The mRNA was then eluted from the matrix, and the mRNA was reversed transcribed in the presence of [^32P]-dCTP to generate radiolabelled cDNA. A 1 μg sample of cDNA was hybridized to the chip overnight, and then the radioactive cDNA bound to the chip was detected. To study the effect of Herceptin on tumor cells in vitro, MDA-MB-361HK cells were plated at a density of 2×10^6 cells/10 cm dish overnight. The cells were treated with 50 μg/ml Herceptin or control human IgG for 72 hours, and the cell lysate was collected for Northern blot analysis and for DNA chip analysis, as described above.

[3] = test system: MDA-MB-361HK cells; assay: Expression of angiogenesis related genes in MDA-MB-361HK cells in vitro (Northern blot); assay type: cell-based, human; settings: 50 μg/ml for 72 hours
From the text: as §1, with “The cells were treated with 50 μg/ml Herceptin or control human IgG for 72 hours, and the cell lysate was collected for Northern blot analysis and for DNA chip analysis, as described above.” left out

[4] = 30 mg/kg intraperitoneal every 3 days
[5] = when the tumor reached 6 mm size
[6] = GEArray expression profiling, treated tumors vs control tumors in vivo, tumors 6 mm

Herceptin: monoclonal antibody against human epidermal growth factor receptor 2 (HER2)
Length of tumor vessels compared to control antibody treatment [1, 4]: not significantly affecting | Volume of tumor vessels compared to control antibody treatment [1, 4]: significantly reduced | Vascular permeability compared to control antibody treatment ([1]; day 15, 30 mg/kg intraperitoneal every 3 days): significantly reduced | Vascular permeability ([1]; day 15, permeability to albumin, 30 mg/kg intraperitoneal every 3 days): 1.6±1.1 ×10^−7 cm s^−1 | Animal survival compared to control antibody treatment ([1]; time from initiation of treatment to sacrifice (tumor approximately 6 mm)): significantly increased; also recorded: significantly extended | Mean vessel diameter of tumor vessels compared to control antibody treatment ([1]; up to treatment day 15, 30 mg/kg intraperitoneal every 3 days): significantly reduced | Tumor size / tumor growth compared to control antibody treatment ([1]; up to treatment day 15, 30 mg/kg intraperitoneal every 3 days, 30 mg/kg): significantly reduced; also recorded: delayed | Mean vessel diameter compared to control antibody treatment [1, 5]: significantly reduced | Vascular permeability compared to control antibody treatment [1, 5]: significantly reduced | Vessel length compared to control antibody treatment [1, 5]: not significantly different | Vessel volume compared to control antibody treatment [1, 5]: significantly reduced | Expression of angiopoietin-1 (Ang-1) [2, 6]: decreased | Expression of plasminogen activator inhibitor-1 (PAI-1) [2, 6]: decreased | Expression of thrombospondin-1 (TSP-1) [2, 6]: increased | Expression of transforming growth factor alpha (TGF-α) [2, 6]: decreased | Expression of vascular endothelial growth factor (VEGF) [2, 6]: decreased | VEGF expression, Northern blot analysis ([2]; in vivo tumors): not in vivo | Herceptin mediated change in PAI-1 expression, in vivo compared to in vitro ([2]; in vivo tumors vs cultured cells): greater in vivo compared to in vitro | VEGF expression, Northern blot analysis [3]: decreased
